The experiment relates to rat hepatocyte HDAC. The experiment can be described thus: Fluor de Lys HDAC inhibition assay in crude rat hepatocyte lysates. It is filed as biochemical. Particulars: Fluor de Lys substrate, n = 3 or 4, read-out: Estimated IC50 values for tested compounds. As for the experimental part: Screening of the HDAC inhibiting potencies of the above compounds was performed in crude rat hepatocyte lysates, prepared from freshly isolated cells, using the Fluor de Lys HDAC inhibition assay as detailed in example 9.
A two-step collagenase perfusion technique was used to isolate hepatocytes from male outbred Sprague-Dawley rats (200-300 g; Charles River Laboratories, Brussels, Belgium), which were kept under controlled environmental conditions (12 h light-dark cycle) and fed a standard diet (Animalabo A 04) with water ad libitum. […]
Inhibition of HDAC activity was assessed in crude rat hepatocyte lysates by the Fluor de lys HDAC inhibition protocol as outlined herein: […]
1. bring 10 μl inhibitor/control solvents/assay buffer per well 2. add 15 μl cell extract to each well (for the blank: 15 μl boiled cell extract) 3. incubate 5 min at room temperature (cover plate with aluminium foil) 4. add 25 μl Fluor de Lys substrate to each well (40 μM solution, […]) 5. cover the plate with aluminium foil and incubate 15 min on orbital shaker 6. after 15 min, add 50 μl freshly prepared, ice-cold developer solution to each well 7. cover the plate with aluminium foil and incubate 15 min on orbital shaker 8. Measure the fluorescence in the plate reader […]

Data on one compound can be found in patent US20100278782A1, “DIFFERENTIATION OF RAT LIVER EPITHELIAL CELLS INTO HEPATOCYTE-LIKE CELLS” (Vrije Universiteit Brussel, priority 2006, published 2010).

In the case of `CC(/C=C/C(=O)NO)=C\[C@@H](C)C(=O)c1ccc(N(C)C)cc1` [TSA, Trichostatin A], the IC50 (as a rule, the concentration needed to halve the response being measured) is 9 ± 3 nM.
